Amino acid sequences for entries named in this document (tags omitted). Residues count along the entry.
UniProt G7CES0, 29-471 E46A: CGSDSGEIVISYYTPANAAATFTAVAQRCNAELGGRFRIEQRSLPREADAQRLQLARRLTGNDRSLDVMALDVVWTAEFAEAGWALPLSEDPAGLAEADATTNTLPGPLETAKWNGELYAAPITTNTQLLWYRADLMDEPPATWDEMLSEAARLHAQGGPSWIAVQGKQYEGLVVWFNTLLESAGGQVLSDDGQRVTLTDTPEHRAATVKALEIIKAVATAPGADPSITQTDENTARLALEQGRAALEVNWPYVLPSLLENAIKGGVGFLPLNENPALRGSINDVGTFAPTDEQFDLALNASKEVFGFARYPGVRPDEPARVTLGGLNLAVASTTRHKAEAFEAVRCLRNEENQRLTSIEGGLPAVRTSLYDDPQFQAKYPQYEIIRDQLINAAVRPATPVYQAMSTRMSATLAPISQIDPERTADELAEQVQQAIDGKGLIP
UniProt G7CES0, 29-471 N154A: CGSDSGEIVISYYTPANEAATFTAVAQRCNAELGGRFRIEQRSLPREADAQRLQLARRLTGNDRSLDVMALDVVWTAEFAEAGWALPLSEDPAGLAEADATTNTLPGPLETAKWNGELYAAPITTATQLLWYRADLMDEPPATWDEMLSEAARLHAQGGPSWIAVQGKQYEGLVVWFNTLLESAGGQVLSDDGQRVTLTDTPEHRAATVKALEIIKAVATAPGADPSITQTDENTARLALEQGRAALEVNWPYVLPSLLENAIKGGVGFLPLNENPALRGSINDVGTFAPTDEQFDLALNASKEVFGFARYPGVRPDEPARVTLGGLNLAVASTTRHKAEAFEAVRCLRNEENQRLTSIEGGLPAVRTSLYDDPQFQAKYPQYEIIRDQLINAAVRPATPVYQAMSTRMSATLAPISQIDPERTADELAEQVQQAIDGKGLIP

In PMC7949145 (The Journal of Biological Chemistry, 2021):

How the values were obtained:
[1] = molecular target: Mtr LpqY Glu26Ala (Mycolicibacterium thermoresistibile, UniProt G7CES0, E46A); assay: biochemical; assay type: binding, Mycobacterium thermoresistible
[2] = molecular target: Mtr LpqY Asn134Ala (Mycolicibacterium thermoresistibile, UniProt G7CES0, N154A); assay: biochemical; assay type: binding, Mycobacterium thermoresistible

Q: With `OC[C@H]1O[C@H](O[C@H]2O[C@H](CO)[C@@H](O)[C@H](O)[C@H]2O)[C@H](O)[C@@H](O)[C@@H]1O` [Trehalose, α-D-glucopyranosyl-α-D-glucopyranoside] as the compound, how does the Kd [1] read?
A: 0.234 ± 0.0093 mM

Q: And the Kd [2]?
A: 9.061 ± 0.0117 mM
